Assay results as given in EP4830731A1, “TUMOR MICROENVIRONMENT-ACTIVATED DRUG CONJUGATE AND ANTIBODY-DRUG CONJUGATE” (dated 2026).

Experiments:
[1] = test system: acidified CT-26 tumor tissue homogenate; assay: Activation and release of drug in tumor tissue homogenate, time course; settings: CT-26 tumor tissue homogenate pH 5.0, 37°C; S5 releases T785, S16 releases Dxd
Protocol: (§1) A certain amount of the drug conjugates (S5, S16, Deruxtecan, Control Compound Y; wherein Control Compound Y is compound S1 in CN103011521B) were weighed, dissolved, and diluted tenfold to a concentration of 0.1 mmol/ml. The drug conjugates were added at a concentration of 1 mg/ml to 100 µg of acidified CT-26 tumor tissue homogenate (pH 5.0) at 37°C. The enzymes in the tumor tissue homogenate were able to release the drug, and the released drug was detected by HPLC to compare the activation efficiency of the linker in the tumor tissue.

CT26 cells = assay: CT26 tumor model, S5 alone and with CTLA-4 antibody; settings: CT26 in BALB/c mice; tail vein, three weeks; CTLA-4 5mg/kg twice a week; TMEA-TRL7/8 1.785 µmol/kg once a week
Protocol: • 1. Animals: BALB/c mice, 8-week-old females (Shanghai Lingchang Biotechnology Co., Ltd.). • 2. Cells: Cell Bank of Chinese Academy of Sciences. Cells were cultured in RPMI Medium 1640 (1x) medium containing 10% fetal bovine serum at 37°C in 5% CO2, passaged every 3 days, and cells within 15 passages were used. • 3. Tumor induction: 0.3×10^6 CT26 cells were subcutaneously injected into the back of BALB/c mice. When the tumor grew to about 160 mm^3, the mice were randomly grouped and treatment was started. • 4. Treatment process: CTLA-4 was administered twice a week, and TMEA-TRL7/8 was administered once a week, for three weeks, by tail vein administration.

[2] = test system: acidified CT-26 tumor tissue homogenate; assay: Enzymatic cleavage (activation) in tumor tissue homogenate; settings: acidified CT-26 tumor tissue homogenate pH 5.0, 37°C, released drug by HPLC
Protocol: as §1, with “conjugates” for “conjugates (S5, S16, Deruxtecan, Control Compound Y; wherein Control Compound Y is compound S1 in CN103011521B)”, “mM/ml.” for “mmol/ml.”

[3] = Human plasma stability (HPLC); settings: 37 °C
Protocol: An appropriate amount of sample was weighed and dissolved in DMSO to prepare a 1 mM solution. Human plasma was added at a volume ratio of 1:9, and the mixture was incubated in an incubator at 37 °C. Aliquots were taken at 0, 2, 4, 6, and 24 hours, and DMSO/MeOH (1:1) was added at a volume ratio of 1:3 to remove proteins. The mixture was centrifuged at 12000 rpm for 5 minutes, and the supernatant was collected. The HPLC analysis was performed using the method described above (Agilent 1260, column: Eclipse Plus C18, 4.6 * 250 mm, 5 µm; mobile phase A: 0.1% TFA + H2O; mobile phase B: CH3CN; flow rate: 1.0 mL/min; column temperature: 30 °C; detection wavelength: 214 nm).

[4] = Aqueous solution stability (HPLC); settings: content relative to 0 hour by HPLC, 0.2 µmol/mL in DMSO/water, water bath 25 °C / 37 °C
Protocol: Each drug conjugate compound was accurately weighed and dissolved in a certain amount of DMSO to prepare a stock solution at a concentration of 10 µmol/mL. Then, 10 µL of the stock solution was added to 80 µL of DMSO to dilute to a concentration of 1 µmol/mL, and then further diluted with pure water at a ratio of 1:4 to achieve a sample solution concentration of 0.2 µmol/mL. After the sample became clear, it was placed in a water bath at 25 °C / 37 °C. Samples were taken at 0 hour and 24 hours and analyzed by HPLC (Agilent 1260, column: Eclipse Plus C18, 4.6×250 mm, 5 µm; mobile phase A: 0.1% TFA + H2O; mobile phase B: CH3CN; flow rate: 1.0 mL/min; column temperature: 30 °C; detection wavelength: 214 nm) to determine the content of the drug conjugate relative to that at 0 hour, thereby obtaining the solution stability data of the different compounds.

Plasma stability % (24 h) [3]	Aqueous solution stability % (24 h) [4]	Structure (SMILES)	time at which release of drug started [1]	TGI (%) on day 27 (CT26 cells)	Tumor volume on day 27 (CT26 cells)	Enzymatic cleavage efficiency % (2 h) [2]
99%	100%	CCCCc1nc2c(N)nc3ccccc3c2n1CCCCNC(=O)[C@H](CC(N)=O)NC(=O)[C@H](C)NC(=O)[C@H](C)NC(=O)CCCCCN1C(=O)C=CC1=O	5 min	80.33%	604.86 mm^3	95%
80%	95%	CCOCc1nc2c(NC(=O)[C@H](CC(N)=O)NC(=O)[C@H](C)NC(=O)[C@H](C)NC(=O)CCCCCN3C(=O)C=CC3=O)nc3ccccc3c2n1CC(C)(C)O				91%
